Measured values published in PubChem BioAssay AID624172 (National Center for Advancing Translational Sciences (NCATS), 2012).
This is a selection; strong and weak results do not stand in their true shares. Active and inactive are the calls of the source. The call rests on the fitted dose curve; in most records, active means well fitted activation curve with a large enough effect; inconclusive means small, poorly fitted or top-dose-only effect; inactive means no such curve, though single readings can be large or run the other way.
Further: % of control where 0% means no effect.

By UniProt entry, the sequences of proteins in these tests, tags left out.
UniProt P43220, whole entry, looked up: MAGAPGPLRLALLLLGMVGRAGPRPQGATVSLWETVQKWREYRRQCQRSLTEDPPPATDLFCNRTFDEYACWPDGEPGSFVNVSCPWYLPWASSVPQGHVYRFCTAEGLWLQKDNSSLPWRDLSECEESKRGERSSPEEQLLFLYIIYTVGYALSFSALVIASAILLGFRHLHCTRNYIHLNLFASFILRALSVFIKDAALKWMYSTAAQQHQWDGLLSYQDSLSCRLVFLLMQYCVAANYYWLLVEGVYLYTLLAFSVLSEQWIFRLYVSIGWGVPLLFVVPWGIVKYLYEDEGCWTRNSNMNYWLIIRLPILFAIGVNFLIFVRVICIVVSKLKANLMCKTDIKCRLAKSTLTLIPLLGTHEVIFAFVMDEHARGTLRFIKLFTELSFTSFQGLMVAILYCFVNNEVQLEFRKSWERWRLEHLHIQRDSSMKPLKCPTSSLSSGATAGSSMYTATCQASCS

Each molecule was assayed against Glucagon-like peptide 1 receptor (Homo sapiens) (UniProt P43220) (assay: qHTS of GLP-1 Receptor Agonists). Conditions: HEK293 GLP-1R CRE-luciferase, luminescence, 4-6 h, cells express a hypersensitive GLP-1R form; at 45.6 µM (top of the series) unless noted.
Text: The overall goal of this project was to develop a novel assay for discovering small molecule ligands for class B1 G protein-coupled receptors (GPCRs). Very few agonists (or inverse agonists) with generally weak activity for this entire group of physiologically important receptors are known to date. To establish proof-of-principle that this critical bottleneck can be overcome with a suitable screening approach, our studies focused on the class B1 receptor for glucagon-like peptide-1 (GLP-1R), a potential therapeutic target for diabetes and neurodegenerative disease.
The assay was developed in a "mix and measure" format using a cell-based functional readout. Toward this goal, stably transfected HEK293 cell clones were established that co-express (i) a cAMP-responsive luciferase reporter gene, and (ii) GLP-1Rs that upon ligand interaction either stimulate (agonists) or inhibit (inverse agonists) luciferase activity. In different cell lines to be used for screening, expressed GLP-1Rs are specifically optimized for high sensitivity detection of either weak agonists (hypersensitive receptor) or inverse agonists (constitutively active receptor mutant). In addition, control cell lines were developed that express either the cAMP-responsive reporter gene without recombinant GLP-1Rs (enabling initial exclusion of GLP-1R independent effects of candidate probes), or the reporter gene together with wild type GLP-1Rs (for confirmation of probe activity at this receptor), or the reporter gene in combination with the constitutively active orphan receptor GPR119 (enabling initial exclusion of GLP-1R independent inhibitory effects of candidate inverse agonists).
To that end, this assay was optimized for 1536-well format and screened against the MLSMR.
NIH Molecular Libraries Probe Production Network [MLPCN]
NIH Chemical Genomics Center [NCGC]
PI Name: Martin Beinborn, Tufts Medical Center
In a white solid 1536-well plate, 6 uL of cells are dispensed in DMEM without phenol red, 10% Nu serum, and 1% pen-strep medium. The plates are then incubated for 12 hours at 37 deg C at 5% CO2 before 23 nL of compounds are added. After a 4-6 hr incubation at37 deg C and 5% CO2, 3 uL of detection reagent are added and after a 12 min incubation at RT, a luminescent read is obtained on the ViewLux.
`CCN(N=Nc1nonc1N)c1nonc1N` was tested, and the activation was inactive: 1.05%. With `Nc1cccc2ccc([As](=O)(O)O)cc12` the activation was inactive: -0.531%. `CCCC1OP(N)(=O)OCC1CC` (stereo not drawn) was tested, and the activation was inactive: 1.16%. In the case of `O=C(O)c1ccccc1[As](=O)(O)O`, the activation is reported as inactive: 5.95%. In the case of `CC(=O)Nc1ccc([As](=O)(O)O)cc1`, the activation is reported as inactive: 0.494%. `CN(C)P(=O)(N(C)C)n1c(Nc2ccccc2)nnc1-c1ccccc1` was tested, and the activation was inactive: 2.71%. For `O=P(Nc1nc2ccc(Cl)cc2s1)(c1ccccc1)c1ccccc1`, the activation was inactive: 2.25%. With `CN(C(=O)Cc1ccc(Cl)c(Cl)c1)[C@H]1CCCC[C@@H]1N1CCCC1` the activation was inactive: 12.3%. For `Cc1ccc(NP(=O)(Oc2ccccc2F)Oc2ccccc2F)nc1`, the activation was inactive: 0.423%. `CCOP(=O)(Nc1ccccc1)OCC` was tested, and the activation was inactive: 3.47%. For `Cc1cc(SC(NC(=O)c2ccc(F)cc2)C(Cl)(Cl)Cl)ncn1` (stereo not drawn), the activation was inactive: -13%. `CC(C)CC(=O)NC(Sc1ccc(Cl)cc1)C(Cl)(Cl)Cl` (stereo not drawn) was tested, and the activation was inactive: -4.98%. `Nc1cc(N)c2nonc2c1[N+](=O)[O-]` was tested, and the activation was inactive: -4.69%. For `O=C(NC(Sc1ccncn1)C(Cl)(Cl)Cl)c1ccccc1` (stereo not drawn), the activation was inactive: -6.22%. In the case of `Oc1ccccc1CNc1ccccn1`, the activation is reported as inactive: 11.4%. With `O=[N+]([O-])C1C(O)C(O)C([N+](=O)[O-])C(O)C1O` (stereo not drawn) the activation was inactive: -1.7%. For `NC(=O)c1cc([N+](=O)[O-])cc([N+](=O)[O-])c1N`, the activation was inactive: -7.16%. `Cc1ccc(N/C(=N/P(=O)(N2CCOCC2)N2CCOCC2)N2CCOCC2)cc1` was tested, and the activation was inactive: -1.04%. `CN(C(=O)Cc1ccc(Cl)c(Cl)c1)[C@H]1CCCC[C@H]1N1CCCC1` was tested, and the activation was inactive: 4.33%. `Cc1ccc(OP(=O)(Nc2nccs2)Oc2ccc(C)cc2)cc1` was tested, and the activation was inactive: -0.788%. For `COc1ccccc1OP(=O)(Nc1ccc(C)cn1)Oc1ccccc1OC`, the activation was inactive: 11.4%. `Clc1ccc(Cl)c(NC2=NCC(CBr)S2)c1` (stereo not drawn) was tested, and the activation was inactive: -2.21%. `CN1CCCC(OC(=O)C(c2ccccc2)c2ccccc2)C1` (stereo not drawn) was tested, and the activation was inactive: 4.29%. `C[N+]1=C2C=CC=CC=C2SC12C([N+](=O)[O-])=CC([N+](=O)[O-])=C[C-]2[N+](=O)[O-]` (stereo not drawn) was tested, and the activation was inactive: -9.05%. `Nc1ccc([As](=O)(O)c2ccc(N)cc2)cc1` was tested, and the activation was inactive: -0.278%. In the case of `CCN(/C(=N/P(=O)(N1CCOCC1)N1CCOCC1)N1CCOCC1)c1ccc(OC)cc1`, the activation is reported as inactive: 0.774%. With `CN(C)C(=O)OCCc1n(C)cc[n+]1C` the activation was inactive: 0.281%. `CC(C)=N/N=C(\N)N[N+](=O)[O-]` was tested, and the activation was inactive: 6.59%.
